The values below come from PMC4379058, “The Biochemical Properties of the Arabidopsis Ecto-Nucleoside Triphosphate Diphosphohydrolase AtAPY1 Contradict a Direct Role in Purinergic Signaling” (PLoS ONE, 2015).

By UniProt entry, the sequences of proteins in these tests, tags left out. Where a name states a change or a piece, a line headed by the entry shows the natural chain unless it says otherwise.
UniProt Q9SQG2: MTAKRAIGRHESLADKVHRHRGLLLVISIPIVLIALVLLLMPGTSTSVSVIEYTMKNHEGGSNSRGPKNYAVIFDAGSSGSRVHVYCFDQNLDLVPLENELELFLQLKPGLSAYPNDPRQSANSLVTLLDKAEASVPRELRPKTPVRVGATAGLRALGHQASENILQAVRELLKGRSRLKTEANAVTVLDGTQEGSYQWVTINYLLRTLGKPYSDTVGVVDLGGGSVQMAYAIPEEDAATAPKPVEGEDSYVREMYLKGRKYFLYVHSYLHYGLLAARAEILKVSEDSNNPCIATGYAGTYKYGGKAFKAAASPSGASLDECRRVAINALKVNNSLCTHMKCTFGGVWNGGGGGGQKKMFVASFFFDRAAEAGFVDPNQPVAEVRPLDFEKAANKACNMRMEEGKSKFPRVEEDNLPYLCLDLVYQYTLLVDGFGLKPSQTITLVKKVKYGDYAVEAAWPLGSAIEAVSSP

What is called % inhibition is the drop in the measured response relative to a control, in per cent. A low value points to little suppression.

The structures appear in SMILES notation.

In one test the target is AtAPY1 (Arabidopsis thaliana, UniProt Q9SQG2). The experiment in a line: discontinuous molybdate phosphate release assay. The conditions noted are these: 3 mM UDP substrate, 1 mM MgCl2, pH 6.5, 30°C.
The next test has as its target AtAPY1-GFP (Arabidopsis thaliana, UniProt Q9SQG2). The experiment in a line: discontinuous molybdate phosphate release assay. Type of test: biochemical. The following applies: 3 mM UDP substrate, 2 mM MgCl2, pH 6.5, 30°C; immobilised enzyme.

Consider `[N-]=[N+]=N`, for which, at AtAPY1, the “% inhibition at 10 mM” value is given as 42%. Also, on AtAPY1-GFP, the “% inhibition” value was “The same inhibition pattern was found for AtAPY1-GFP”.
